The results in this text go back to article PMC3200564 (European journal of nuclear medicine and molecular imaging, 2011).

Entries after “also recorded” stand apart in the source; their conditions may differ.

Data set [1] can be described thus: Small-animal PET imaging, ROI analysis. The data set is classed as in vivo, mice. The settings on record: female, athymic nude, mouse, tumor (MDA-MB-435), iv, 3.7 MBq, total radioactivity.
Data set [2] relates to UM-SCC1 cells. Nature of the data set: Cell uptake and internalization of ^18F-FP-QQM. Type of data set: cell-based, human. The conditions noted are these: for cell uptake with blocking, percentage of total input radioactivity: 37°C, in presence of 1 μM non-radiolabeled QQM peptide. The gist of the method: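 UM-SCC1 cells were seeded at 1×10^5 per well and grown overnight. They were then incubated at 37°C for 15, 30 or 60 min with about 37 kBq (1 μCi) per well of the 18F-labeled test peptide plus unlabeled test peptide (1 μM final) to block specific binding. Cells were washed three times with chilled PBS, lysed in 0.1 N NaOH and γ-counted. Uptake is given as % of decay-corrected total input. Two experiments, triplicate wells.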

A short description of data set [3]: Ex vivo biodistribution. The conditions noted are these: female, athymic nude, mouse, iv, 3.7 MBq, total radioactivity. The data set is classed as in vivo, mice. The gist of the method:
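Female athymic nude mice carried UM-SCC1 xenografts (6×10^6 cells s.c., right front flank, PBS:Matrigel 1:1) grown to 200–500 mm3. Each received 3.7 MBq of the 18F-labeled test peptide i.v. under isoflurane. Mice were killed at 1 or 2 h p.i., right after imaging. Blood, tumor and organs were weighed wet and γ-counted against an aliquot of injected tracer, then normalized to group mean body mass. Results are %ID/g, means±SD, n=4/group.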

Data set [4] is described as follows: Small-animal PET imaging, ROI analysis. Type of data set: in vivo, mice. The conditions noted are these: female, athymic nude, mouse, iv, 3.7 MBq, total radioactivity. The gist of the method: (§1)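 UM-SCC1 tumor-bearing nude mice (n=6) received 3.7 MBq (100 μCi) of the 18F-labeled test peptide i.v. under isoflurane. Static microPET scans were taken at 15, 30 and 60 min p.i. (5 min each) and at 2 h p.i. (10 min). ROI mean pixel values were converted to MBq/ml/min assuming tissue density of 1 g/ml. %ID/g was calculated as ROI concentration divided by administered activity.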

The subject of data set [5] is UM-SCC1 tumor-bearing mice. Nature of the data set: Small-animal PET imaging, ROI analysis. The data set is classed as in vivo. In a few lines:
as §1

On to `CC[C@H](C)[C@H](NC(=O)[C@H](Cc1ccc(O)cc1)NC(=O)[C@H](CC(C)C)NC(=O)[C@@H]1CCCN1C(=O)[C@H](CC(C)C)NC(=O)[C@H](CCCNC(=N)N)NC(=O)[C@H](CC(=O)O)NC(=O)[C@H](CC(N)=O)NC(=O)[C@H](Cc1ccc(O)cc1)NC(=O)[C@@H](N)CCCCNC(=O)C(C)F)C(=O)N[C@@H](CO)C(=O)N[C@@H](CC(N)=O)C(=O)N1CCC[C@H]1C(=O)O` (some centres unmarked) [^18F-FP-QQM], for which the tissue uptake (usually the percentage of the injected dose found per gram of tissue) at 0.5 h in data set [1] was 1.64 ± 0.24 %ID/g; in data set [4] (kidney) it was 11.4 ± 5.7 %ID/g; in data set [4] (liver), 4.23 ± 3.2 %ID/g; in data set [4] (tumor (UM-SCC1)), 3.73 ± 0.56 %ID/g. The tissue uptake at 1 h in data set [1] was found to be 1.38 ± 0.56 %ID/g; in data set [3] (kidneys), 5.21 ± 2.67 %ID/g; in data set [3] (lung), 3.19 ± 1.44 %ID/g; in data set [3] (pancreas), 5.24 ± 2.66 %ID/g; in data set [3] (tumor (UM-SCC1)) it was 3.45 ± 0.95 %ID/g; in data set [4] (kidney), 6 ± 2.92 %ID/g. Moreover, the values for the tissue uptake at 1 h in data set [4] (liver) and in data set [4] (tumor (UM-SCC1)) were 3.84 ± 2.49 %ID/g and 2.96 ± 0.84 %ID/g, respectively. Besides, the “cell uptake with blocking, percentage of total input radioactivity” value in data set [2] (15 min) is given as 0.48±0.06%; in data set [2] (30 min) it was 0.63±0.07%; in data set [2] (60 min), 1.08±0.13%. In data set [2] (acid wash (50 mM glycine-HCl/100 mM NaCl, pH 2.8), after 15 min incubation at 37°C), the internalization into cells entry is “almost completely internalized”. Further, the tissue uptake at 2 h turned out to be 2.03 ± 0.29 %ID/g in data set [3] (tumor (UM-SCC1)), 2.06 ± 0.36 %ID/g in data set [4] (kidney) and 1.63 ± 0.51 %ID/g in data set [4] (liver). For the same compound, the tissue uptake at 0.25 h was 16.4 ± 2.69 %ID/g in data set [4] (kidney) and 8.47 ± 1.19 %ID/g in data set [4] (liver). In data set [5] (PET imaging up to 120 min p.i.), the “bone uptake (defluoridation)” value is listed as “No bone uptake was observed”. In data set [5] (PET imaging, i.v. injection), the route of excretion result is reported as “predominantly renal clearance; also recorded: excreted mainly through the renal/urinary route”.
